Yeast mating assay 1: variants of the scFv Ab-14

Source: Engelhart et al. 2022 (doi:10.1038/s41597-022-01779-4), MIT Lincoln Laboratory and A-Alpha Bio; data file from the FLAb repository.

Binding partner: SARS-CoV-2 spike HR2 peptide, sequence PDVDLGDISGINAS.

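The starting antibody came from a phage panning campaign against this peptide. The library (AAYL50) carries one to three amino acid substitutions per variant, with no insertions or deletions. The assay is AlphaSeq: two haploid yeast populations carry antibody and antigen on their surface. After mating in shaken culture at 30 °C for 16 h, diploids were selected and their barcode pairs sequenced. A regression on co-assayed BCL2-family reference pairs converts the normalised counts of each replicate to an apparent Kd. Mating was done three times.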

Ab-14 is the parent antibody, in scFv form: VH, then a 15-residue (Gly4Ser)3 linker, then VL. The heavy chain is unchanged in all variants.
VH: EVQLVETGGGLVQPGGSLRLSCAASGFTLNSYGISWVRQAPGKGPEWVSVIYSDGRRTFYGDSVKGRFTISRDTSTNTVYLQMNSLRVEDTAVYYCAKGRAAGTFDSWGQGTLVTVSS
VL: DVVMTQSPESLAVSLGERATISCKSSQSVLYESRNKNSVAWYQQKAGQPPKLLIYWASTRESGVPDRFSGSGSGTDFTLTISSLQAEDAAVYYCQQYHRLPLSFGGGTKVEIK

Positions count from residue 1 of the parent VL; K36S puts S in place of K. The read-out is the apparent dissociation constant on a log10 scale (nM): the lower, the stronger. An entry "n.d." has no value in the source: the pair was not observed among the diploids in that replicate. This suggests poor binding but is not conclusive. Nonspecific signal, from three strains lacking the peptide, appeared in 18% of pairings of library AAYL50, centred on 4.19 (5% of these signals below 2.99); values are not corrected for it. The control count says in how many pairings with the empty strains this scFv gave a signal, with their mean in brackets. Parent in this assay: reference entry 0.65, copy in this library 1.68.

{"changes": "K36S Q95R L102F", "replicates, log10 nM": "n.d. / n.d. / n.d.", "empty controls": "0 of 9"}
{"changes": "E32D S38H T59M", "replicates, log10 nM": "0.50 / 0.85 / 0.49", "empty controls": "1 of 9 (4.45)"}
{"changes": "S25I V29L R60L", "replicates, log10 nM": "0.51 / 0.80 / 0.60", "empty controls": "3 of 9 (5.34)"}
{"changes": "A40R E61G H98F", "replicates, log10 nM": "n.d. / n.d. / n.d.", "empty controls": "0 of 9"}
{"changes": "L30Q E61V Y97D", "replicates, log10 nM": "4.85 / n.d. / 4.54", "empty controls": "1 of 9 (4.84)"}
{"changes": "S25G L30M W56C", "replicates, log10 nM": "1.46 / 1.55 / 1.67", "empty controls": "2 of 9 (4.26)"}
{"changes": "Q27A R34H L100T", "replicates, log10 nM": "3.14 / 2.69 / 2.97", "empty controls": "2 of 9 (3.70)"}
{"changes": "R34L L100K L102V", "replicates, log10 nM": "0.24 / 0.69 / 0.37", "empty controls": "3 of 9 (4.76)"}
{"changes": "L30N S38C T59A", "replicates, log10 nM": "n.d. / 2.17 / n.d.", "empty controls": "1 of 9 (3.16)"}
{"changes": "R34Y A40C S103M", "replicates, log10 nM": "3.42 / 2.44 / 2.80", "empty controls": "2 of 9 (3.62)"}
{"changes": "L30M S38T A57C", "replicates, log10 nM": "n.d. / n.d. / n.d.", "empty controls": "0 of 9"}
{"changes": "S28P S38L A57D", "replicates, log10 nM": "n.d. / 3.50 / n.d.", "empty controls": "2 of 9 (3.97)"}
{"changes": "V29D E32R S62F", "replicates, log10 nM": "1.38 / 1.73 / 1.62", "empty controls": "0 of 9"}
{"changes": "E32P N35M V39G", "replicates, log10 nM": "n.d. / n.d. / n.d.", "empty controls": "0 of 9"}
{"changes": "E32L R60I S62R", "replicates, log10 nM": "n.d. / n.d. / n.d.", "empty controls": "0 of 9"}
{"changes": "R34Q N37D A40Y", "replicates, log10 nM": "n.d. / n.d. / n.d.", "empty controls": "1 of 9 (2.76)"}
{"changes": "K24F S25A S28N", "replicates, log10 nM": "n.d. / 1.37 / 1.34", "empty controls": "0 of 9"}
{"changes": "R34T R60Q", "replicates, log10 nM": "1.42 / 1.50 / 1.46", "empty controls": "1 of 9 (4.84)"}
{"changes": "Y31Q S58T L100I", "replicates, log10 nM": "1.59 / 1.65 / 1.91", "empty controls": "4 of 9 (3.88)"}
{"changes": "R60A Q95H P101K", "replicates, log10 nM": "n.d. / n.d. / n.d.", "empty controls": "1 of 9 (3.16)"}
{"changes": "S33E S38H", "replicates, log10 nM": "1.64 / 1.50 / 1.74", "empty controls": "2 of 9 (4.01)"}
{"changes": "A40F W56V R99H", "replicates, log10 nM": "n.d. / n.d. / n.d.", "empty controls": "0 of 9"}
{"changes": "K24P S33E S38D", "replicates, log10 nM": "4.02 / 4.24 / n.d.", "empty controls": "5 of 9 (4.01)"}
{"changes": "Q27D L102D", "replicates, log10 nM": "n.d. / n.d. / n.d.", "empty controls": "0 of 9"}

Picked from the list: the 3 lowest averages where every replicate gave a value.

{"changes": "R34L L100K L102V", "replicates, log10 nM": "0.24 / 0.69 / 0.37", "empty controls": "3 of 9 (4.76)"}
{"changes": "E32D S38H T59M", "replicates, log10 nM": "0.50 / 0.85 / 0.49", "empty controls": "1 of 9 (4.45)"}
{"changes": "S25I V29L R60L", "replicates, log10 nM": "0.51 / 0.80 / 0.60", "empty controls": "3 of 9 (5.34)"}